Measurements as given in patent US8959984B2, “Proteome-wide quantification of small molecule binding to cellular target proteins” (priority 2007, dated 2015).

Amino acid sequences for entries named in this document (tags omitted). A change or cut given only in a name is not applied to a line headed by its entry. Residues count along the entry.
UniProt Q5VT25: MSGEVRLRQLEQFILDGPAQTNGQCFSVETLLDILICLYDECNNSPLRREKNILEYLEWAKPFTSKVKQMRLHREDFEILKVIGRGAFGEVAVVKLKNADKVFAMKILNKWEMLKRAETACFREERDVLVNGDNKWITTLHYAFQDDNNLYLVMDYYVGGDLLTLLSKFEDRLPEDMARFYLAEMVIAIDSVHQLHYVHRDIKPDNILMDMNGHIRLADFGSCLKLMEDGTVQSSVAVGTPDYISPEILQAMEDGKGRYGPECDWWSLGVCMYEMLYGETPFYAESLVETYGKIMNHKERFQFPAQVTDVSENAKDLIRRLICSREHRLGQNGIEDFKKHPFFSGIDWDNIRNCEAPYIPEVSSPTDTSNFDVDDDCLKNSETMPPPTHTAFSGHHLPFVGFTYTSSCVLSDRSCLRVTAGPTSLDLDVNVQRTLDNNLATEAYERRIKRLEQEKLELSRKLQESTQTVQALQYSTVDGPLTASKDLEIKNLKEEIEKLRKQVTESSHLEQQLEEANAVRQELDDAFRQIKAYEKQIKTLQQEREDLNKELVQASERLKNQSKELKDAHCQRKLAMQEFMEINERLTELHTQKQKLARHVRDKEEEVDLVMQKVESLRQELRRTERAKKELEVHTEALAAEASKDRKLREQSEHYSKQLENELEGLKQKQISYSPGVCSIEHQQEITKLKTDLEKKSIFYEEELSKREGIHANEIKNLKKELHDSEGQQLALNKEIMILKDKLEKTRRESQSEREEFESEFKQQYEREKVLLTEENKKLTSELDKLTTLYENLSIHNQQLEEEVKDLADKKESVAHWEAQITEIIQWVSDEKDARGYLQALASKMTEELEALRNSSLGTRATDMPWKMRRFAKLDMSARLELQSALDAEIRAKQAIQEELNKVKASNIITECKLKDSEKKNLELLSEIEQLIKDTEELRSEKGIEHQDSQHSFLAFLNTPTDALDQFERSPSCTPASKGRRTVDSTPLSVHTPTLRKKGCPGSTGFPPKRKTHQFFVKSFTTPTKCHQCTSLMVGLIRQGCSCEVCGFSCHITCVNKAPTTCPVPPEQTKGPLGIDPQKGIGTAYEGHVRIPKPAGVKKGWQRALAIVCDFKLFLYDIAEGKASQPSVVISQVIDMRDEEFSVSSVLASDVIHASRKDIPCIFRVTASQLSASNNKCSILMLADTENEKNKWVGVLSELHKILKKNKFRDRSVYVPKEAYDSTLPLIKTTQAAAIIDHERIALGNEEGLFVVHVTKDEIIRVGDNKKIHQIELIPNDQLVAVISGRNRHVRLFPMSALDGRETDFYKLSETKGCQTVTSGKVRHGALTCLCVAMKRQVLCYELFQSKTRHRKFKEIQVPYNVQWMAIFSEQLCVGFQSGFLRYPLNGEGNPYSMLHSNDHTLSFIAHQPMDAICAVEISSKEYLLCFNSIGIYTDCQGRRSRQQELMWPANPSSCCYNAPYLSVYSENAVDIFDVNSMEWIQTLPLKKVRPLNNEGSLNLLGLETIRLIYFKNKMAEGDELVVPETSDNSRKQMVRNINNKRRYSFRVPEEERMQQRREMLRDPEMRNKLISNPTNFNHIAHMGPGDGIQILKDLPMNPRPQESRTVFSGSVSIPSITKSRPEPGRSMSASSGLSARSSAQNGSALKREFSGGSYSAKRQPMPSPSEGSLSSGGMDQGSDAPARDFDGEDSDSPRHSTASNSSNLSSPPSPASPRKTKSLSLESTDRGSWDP
UniProt Q08345, 19-913: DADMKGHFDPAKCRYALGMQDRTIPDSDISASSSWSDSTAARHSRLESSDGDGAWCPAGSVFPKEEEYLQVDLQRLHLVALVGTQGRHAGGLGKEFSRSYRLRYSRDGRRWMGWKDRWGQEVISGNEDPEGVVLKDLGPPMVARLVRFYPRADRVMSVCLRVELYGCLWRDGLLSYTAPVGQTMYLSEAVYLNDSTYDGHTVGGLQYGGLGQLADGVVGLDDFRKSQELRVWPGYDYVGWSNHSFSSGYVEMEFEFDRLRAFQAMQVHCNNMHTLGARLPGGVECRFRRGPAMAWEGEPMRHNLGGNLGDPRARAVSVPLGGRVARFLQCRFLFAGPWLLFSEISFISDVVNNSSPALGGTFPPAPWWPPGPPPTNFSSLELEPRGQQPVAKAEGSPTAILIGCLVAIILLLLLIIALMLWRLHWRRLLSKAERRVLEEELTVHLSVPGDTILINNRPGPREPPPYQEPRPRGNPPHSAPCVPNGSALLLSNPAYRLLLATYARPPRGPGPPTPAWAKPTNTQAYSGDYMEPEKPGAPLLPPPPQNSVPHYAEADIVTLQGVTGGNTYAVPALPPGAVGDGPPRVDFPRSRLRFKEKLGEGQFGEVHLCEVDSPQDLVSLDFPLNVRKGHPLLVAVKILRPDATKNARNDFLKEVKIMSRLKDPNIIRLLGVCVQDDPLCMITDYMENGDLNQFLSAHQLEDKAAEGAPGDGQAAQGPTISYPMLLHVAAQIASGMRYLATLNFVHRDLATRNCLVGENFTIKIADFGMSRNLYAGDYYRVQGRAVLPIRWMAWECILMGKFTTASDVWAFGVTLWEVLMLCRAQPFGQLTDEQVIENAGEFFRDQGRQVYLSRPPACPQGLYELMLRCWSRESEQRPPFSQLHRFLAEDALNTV
UniProt P49674: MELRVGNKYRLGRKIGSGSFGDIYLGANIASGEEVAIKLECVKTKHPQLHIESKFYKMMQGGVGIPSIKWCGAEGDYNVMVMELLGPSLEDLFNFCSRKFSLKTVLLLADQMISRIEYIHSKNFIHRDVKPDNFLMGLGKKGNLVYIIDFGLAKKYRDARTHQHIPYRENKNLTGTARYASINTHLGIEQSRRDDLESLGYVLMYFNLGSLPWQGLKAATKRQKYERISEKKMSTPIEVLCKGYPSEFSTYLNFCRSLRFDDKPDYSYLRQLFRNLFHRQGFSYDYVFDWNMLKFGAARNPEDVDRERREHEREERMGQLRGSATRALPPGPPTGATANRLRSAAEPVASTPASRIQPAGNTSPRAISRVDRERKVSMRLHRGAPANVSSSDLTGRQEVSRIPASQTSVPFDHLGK
UniProt P14735, whole entry: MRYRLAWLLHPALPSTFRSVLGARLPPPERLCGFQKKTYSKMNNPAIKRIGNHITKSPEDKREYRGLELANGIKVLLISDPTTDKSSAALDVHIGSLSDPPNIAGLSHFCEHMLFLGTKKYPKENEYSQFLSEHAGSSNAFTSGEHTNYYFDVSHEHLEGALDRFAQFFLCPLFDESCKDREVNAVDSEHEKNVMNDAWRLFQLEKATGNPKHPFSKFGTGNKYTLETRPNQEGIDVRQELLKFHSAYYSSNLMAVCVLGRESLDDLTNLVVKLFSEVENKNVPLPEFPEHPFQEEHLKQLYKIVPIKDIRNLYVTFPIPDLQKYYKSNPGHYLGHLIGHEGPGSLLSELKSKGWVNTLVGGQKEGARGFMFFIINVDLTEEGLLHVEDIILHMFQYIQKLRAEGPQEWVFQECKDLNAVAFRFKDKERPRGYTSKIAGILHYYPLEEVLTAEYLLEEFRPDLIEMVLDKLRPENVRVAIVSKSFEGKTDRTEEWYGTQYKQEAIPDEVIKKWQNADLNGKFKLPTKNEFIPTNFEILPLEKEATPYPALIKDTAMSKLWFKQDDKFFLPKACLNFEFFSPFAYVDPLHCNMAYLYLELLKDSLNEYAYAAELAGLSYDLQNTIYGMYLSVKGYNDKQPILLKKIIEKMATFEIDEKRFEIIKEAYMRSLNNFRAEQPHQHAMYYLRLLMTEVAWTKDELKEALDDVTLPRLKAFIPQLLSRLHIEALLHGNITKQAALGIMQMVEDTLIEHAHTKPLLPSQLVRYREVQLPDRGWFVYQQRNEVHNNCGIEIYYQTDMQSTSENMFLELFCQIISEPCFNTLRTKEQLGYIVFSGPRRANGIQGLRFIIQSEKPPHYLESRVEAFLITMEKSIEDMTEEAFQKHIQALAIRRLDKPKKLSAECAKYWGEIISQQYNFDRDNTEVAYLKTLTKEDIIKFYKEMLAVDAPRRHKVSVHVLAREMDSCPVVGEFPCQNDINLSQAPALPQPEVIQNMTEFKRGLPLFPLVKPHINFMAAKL
UniProt Q6P5Z2: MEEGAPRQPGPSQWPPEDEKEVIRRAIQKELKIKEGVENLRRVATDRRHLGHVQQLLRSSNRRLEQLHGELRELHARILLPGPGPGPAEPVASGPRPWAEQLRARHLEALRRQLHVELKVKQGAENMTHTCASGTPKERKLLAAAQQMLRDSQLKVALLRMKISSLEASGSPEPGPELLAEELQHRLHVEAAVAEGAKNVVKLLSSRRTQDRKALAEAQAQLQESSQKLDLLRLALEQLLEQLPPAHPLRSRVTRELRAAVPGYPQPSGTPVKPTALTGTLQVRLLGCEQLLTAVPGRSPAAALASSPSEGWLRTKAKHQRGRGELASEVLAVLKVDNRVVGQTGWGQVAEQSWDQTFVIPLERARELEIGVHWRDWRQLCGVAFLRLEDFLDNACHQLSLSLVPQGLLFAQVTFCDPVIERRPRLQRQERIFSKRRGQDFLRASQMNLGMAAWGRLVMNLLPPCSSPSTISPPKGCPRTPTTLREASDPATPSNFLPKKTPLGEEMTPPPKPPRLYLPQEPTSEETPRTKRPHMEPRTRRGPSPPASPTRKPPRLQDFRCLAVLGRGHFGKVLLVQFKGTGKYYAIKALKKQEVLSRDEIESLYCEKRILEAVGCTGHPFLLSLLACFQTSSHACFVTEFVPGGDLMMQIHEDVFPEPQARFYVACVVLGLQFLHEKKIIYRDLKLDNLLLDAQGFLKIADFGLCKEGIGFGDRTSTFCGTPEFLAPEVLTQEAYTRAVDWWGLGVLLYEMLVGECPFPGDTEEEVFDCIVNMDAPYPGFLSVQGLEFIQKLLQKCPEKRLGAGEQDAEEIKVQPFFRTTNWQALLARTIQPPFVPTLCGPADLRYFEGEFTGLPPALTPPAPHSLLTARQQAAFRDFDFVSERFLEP
UniProt O60583: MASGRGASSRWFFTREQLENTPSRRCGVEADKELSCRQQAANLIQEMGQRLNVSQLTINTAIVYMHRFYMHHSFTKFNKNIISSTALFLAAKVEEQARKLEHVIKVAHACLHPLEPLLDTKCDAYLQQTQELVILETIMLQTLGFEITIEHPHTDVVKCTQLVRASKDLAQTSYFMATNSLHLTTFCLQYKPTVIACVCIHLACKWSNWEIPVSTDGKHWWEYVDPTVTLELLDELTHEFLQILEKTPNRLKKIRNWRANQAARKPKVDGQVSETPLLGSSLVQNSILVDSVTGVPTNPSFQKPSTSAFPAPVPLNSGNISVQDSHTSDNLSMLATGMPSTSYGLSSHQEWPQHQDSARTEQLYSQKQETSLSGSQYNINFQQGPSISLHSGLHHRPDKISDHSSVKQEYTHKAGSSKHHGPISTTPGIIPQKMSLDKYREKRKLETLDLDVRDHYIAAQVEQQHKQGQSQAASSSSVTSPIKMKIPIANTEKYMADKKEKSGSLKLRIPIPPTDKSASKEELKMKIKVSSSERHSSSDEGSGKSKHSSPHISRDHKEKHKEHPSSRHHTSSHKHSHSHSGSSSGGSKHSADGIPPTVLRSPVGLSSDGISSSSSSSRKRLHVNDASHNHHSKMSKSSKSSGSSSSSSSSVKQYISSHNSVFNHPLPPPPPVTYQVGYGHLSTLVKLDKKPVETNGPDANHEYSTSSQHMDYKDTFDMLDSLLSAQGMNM

Assays:
Experiment in all cases: Ki determination for immobilized VI16742: two consecutive incubations, control beads, ligand concentration and incubation time controls (Tables 7, 8)
Format in all cases: binding
[1] = target: cellular target proteins in HeLa cell lysate (Homo sapiens, UniProt Q5VT25); conditions: Ki (VI16742), MRCKa (CDC42BPA) IPI00640957
[2] = target: cellular target proteins in HeLa cell lysate (Homo sapiens, UniProt Q08345); conditions: Ki (VI16742), DDR1 IPI00657861
[3] = target: cellular target proteins in HeLa cell lysate (Homo sapiens, UniProt P49674); conditions: Ki (VI16742), CK1e (CSNK1E) IPI00027729
[4] = target: cellular target proteins in HeLa cell lysate (Homo sapiens, UniProt P14735); conditions: Ki (VI16742), IDE IPI00220373
[5] = target: cellular target proteins in HeLa cell lysate (Homo sapiens, UniProt Q6P5Z2); conditions: Ki (VI16742), PKN3 IPI00413780
[6] = target: cellular target proteins in HeLa cell lysate (Homo sapiens, UniProt O60583); conditions: Ki (VI16742), CCNT2 IPI00030313
[7] = target: T1, cellular target proteins in HeLa cell lysate (Homo sapiens, UniProt O94768); conditions: Ki (VI16742), DRAK2 (STK17B) IPI00014934
T1 sequence (O94768 1-372): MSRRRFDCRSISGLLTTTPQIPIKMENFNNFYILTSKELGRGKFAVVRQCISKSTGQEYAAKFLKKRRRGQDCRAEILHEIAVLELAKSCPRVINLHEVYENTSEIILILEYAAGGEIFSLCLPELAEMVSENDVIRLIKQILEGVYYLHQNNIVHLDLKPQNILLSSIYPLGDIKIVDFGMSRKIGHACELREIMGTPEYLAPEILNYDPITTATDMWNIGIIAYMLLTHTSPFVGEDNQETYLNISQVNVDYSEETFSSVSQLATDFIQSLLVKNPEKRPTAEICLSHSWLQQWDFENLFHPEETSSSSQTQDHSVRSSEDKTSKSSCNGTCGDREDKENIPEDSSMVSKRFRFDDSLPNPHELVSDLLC

[8] = target: T2, cellular target proteins in HeLa cell lysate (Homo sapiens, UniProt Q8TD19); conditions: Ki (VI16742), NEK9 IPI00301609
T2 sequence (Q8TD19 1-979): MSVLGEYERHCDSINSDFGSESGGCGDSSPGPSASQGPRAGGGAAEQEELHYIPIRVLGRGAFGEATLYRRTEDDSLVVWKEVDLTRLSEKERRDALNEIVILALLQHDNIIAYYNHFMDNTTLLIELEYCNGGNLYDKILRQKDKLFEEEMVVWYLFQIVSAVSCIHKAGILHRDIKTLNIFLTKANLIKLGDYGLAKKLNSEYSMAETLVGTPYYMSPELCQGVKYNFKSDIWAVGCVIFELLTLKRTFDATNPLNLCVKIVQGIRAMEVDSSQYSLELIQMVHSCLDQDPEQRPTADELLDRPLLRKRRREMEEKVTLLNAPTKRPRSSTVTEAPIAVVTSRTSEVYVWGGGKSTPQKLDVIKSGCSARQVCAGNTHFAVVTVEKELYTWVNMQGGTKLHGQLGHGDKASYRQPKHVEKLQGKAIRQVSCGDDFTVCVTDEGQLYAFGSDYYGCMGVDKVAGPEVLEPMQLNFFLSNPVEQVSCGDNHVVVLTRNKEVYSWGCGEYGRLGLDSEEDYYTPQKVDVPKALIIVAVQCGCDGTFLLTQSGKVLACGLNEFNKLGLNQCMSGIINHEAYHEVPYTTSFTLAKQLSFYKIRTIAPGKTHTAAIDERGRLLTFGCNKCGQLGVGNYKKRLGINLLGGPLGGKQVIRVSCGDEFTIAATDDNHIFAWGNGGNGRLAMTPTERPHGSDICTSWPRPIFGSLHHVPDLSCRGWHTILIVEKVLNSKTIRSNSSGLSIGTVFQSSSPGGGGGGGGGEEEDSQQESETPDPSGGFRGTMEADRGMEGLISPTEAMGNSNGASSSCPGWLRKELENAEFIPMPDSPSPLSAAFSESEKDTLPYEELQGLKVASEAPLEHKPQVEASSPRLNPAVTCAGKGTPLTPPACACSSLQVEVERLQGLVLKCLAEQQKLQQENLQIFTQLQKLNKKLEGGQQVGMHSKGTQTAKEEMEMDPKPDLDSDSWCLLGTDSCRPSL

SMILES: CC(C)n1c(=O)ccc2cnc(Nc3ccc(OCCN)cc3)nc21 [V16742]
- Ki [1]: 17.3 µM
- Ki [2]: 40.8 µM
- Ki [3]: 14.2 µM
- Ki [4]: 20.7 µM
- Ki [5]: 30.9 µM
- Ki [6]: 6.11 µM
- Ki [7]: 3.75 µM
- Ki [8]: 2.3 µM
